Assay: Body weight of treated CD-1 mice after LNP-ceDNA administration
Conditions: male CD-1 mice, LNP-encapsulated ceDNA vector 0.5 mg/kg i.v. tail vein, co-administered agent; relative to polyC group; days 0-28
Protocol: A ceDNA vector encoding luciferase as the transgene (e.g., SEQ ID NO: 56), with a wild-type AAV2 left ITR and a mutant right ITR and a hAAT promoter, methylated to eliminate free CpG, was used. The ceDNA vector was prepared as described above. […] Four replicates were included in each sample group. Body weights were recorded on days 0, 1, 2, 3, 7, 14, 21 and 28. In-life imaging was performed on days 4, 7, 14, 21, and 28 using an in vivo imaging system (IVIS). For the imaging, each mouse was injected with luciferin at 150 mg/kg via intraperitoneal injection at 2.5 mL/kg. After 15 minutes, each mouse was anaesthetized and imaged.

**Q.** Which body weight loss does the source give for dexamethasone palmitate here?
**A.** significantly attenuated
